Binding of CDR-mutated scFvs to a peptide of the spike HR2 region

The target is the same throughout: PDVDLGDISGINAS, from the HR2 region of SARS-CoV-2 spike.

Parent scFv Ab-14: VH joined to VL by a 15-residue (Gly4Ser)3 linker. Changes lie in the heavy chain CDRs alone.
VH: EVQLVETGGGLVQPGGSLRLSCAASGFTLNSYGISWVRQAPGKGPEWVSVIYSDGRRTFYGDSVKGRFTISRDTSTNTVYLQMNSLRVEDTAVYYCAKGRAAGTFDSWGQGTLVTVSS
VL: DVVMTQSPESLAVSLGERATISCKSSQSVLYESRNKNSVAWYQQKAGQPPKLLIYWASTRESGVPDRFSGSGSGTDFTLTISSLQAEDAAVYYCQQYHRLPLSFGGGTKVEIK

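Phage display of a naive human antibody library on the peptide gave the parent. In library AAYL49, one, two or three CDR residues were substituted; doubles and triples were drawn at random. The assay is AlphaSeq: two haploid yeast populations carry antibody and antigen on their surface. Binding brings cells together so that they mate, and sequencing counts the barcode pairs among the diploids. Read counts were normalised to the haploid input and turned into Kd by a linear fit to BCL2-family pairs of known affinity, for each replicate. Each pool was mated in three replicate cultures.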

Positions count from residue 1 of the parent VH; S31A puts A in place of S.
This list gathers variants with a substitution at K65 (VH, numbered from residue 1).
Values are apparent Kd, the geometric mean of the replicates that gave a signal; lower means stronger binding.
A pair that was not seen in any replicate is written "nd"; this usually means weak binding, but a binder can also be missed.
Nonspecific signal, from three strains lacking the peptide, appeared in 15% of pairings of library AAYL49, centred on 11 µM (5% of these signals below 680 nM); values are not corrected for it.

The variant S31A+I34A+K65A showed 1.2 µM (1 of 3 replicates). The variant I51E+Y60E+K65S gave 20 µM (2 of 3 replicates). The variant V50P+K65I+G99Y gave 1.5 µM (1 of 3 replicates). For I51H+K65E+G99N, the assay gave nd (0 of 3 replicates). The variant G33C+D62P+K65C showed 1.3 µM (1 of 3 replicates). For S63T+V64E+K65E, the assay gave 13 µM (2 of 3 replicates). For G33W+K65I+G103S, the assay gave 11 µM (1 of 3 replicates). For G26T+K65Y, the assay gave 7.7 µM (3 of 3 replicates). With R57S+K65D+S107T the result was nd (0 of 3 replicates).

The variant L29V+G61M+K65P gave 13 µM (1 of 3 replicates). The variant N30M+Y52M+K65Y gave nd (0 of 3 replicates). The variant F27R+K65I gave 290 µM (1 of 3 replicates). The variant R56V+Y60M+K65H gave 3.4 µM (1 of 3 replicates). With I51C+R56H+K65T the result was 12 µM (2 of 3 replicates). The variant V50T+K65L+D106F showed nd (0 of 3 replicates). For S31F+K65Q+G103W, the assay gave nd (0 of 3 replicates). The variant K65H+R100A+T104Q showed 380 nM (3 of 3 replicates). For F27E+K65I+A101M, the assay gave 980 nM (3 of 3 replicates).

The variant Y32I+K65A+R100E showed 680 nM (3 of 3 replicates). The variant G33R+D54M+K65G showed 9.2 µM (2 of 3 replicates). The variant G26I+K65S+G103R showed nd (0 of 3 replicates). With K65C+D106P the result was 8.6 µM (1 of 3 replicates). For G33Y+Y52I+K65A, the assay gave nd (0 of 3 replicates). With G26D+G55K+K65Y the result was nd (0 of 3 replicates). With T58Y+V64N+K65A the result was 62 µM (3 of 3 replicates). With F27V+R56Y+K65T the result was 10 µM (1 of 3 replicates). With D62I+K65N+A101G the result was nd (0 of 3 replicates).

The variant G55Y+D62Y+K65D gave 3.3 µM (1 of 3 replicates). The variant F27D+K65M+A101F gave 120 µM (1 of 3 replicates). The variant F27N+K65G+T104W showed 2.6 µM (1 of 3 replicates). The variant G26H+K65H+R100M gave nd (0 of 3 replicates). The variant S35G+D54F+K65Q gave nd (0 of 3 replicates). The variant T58D+K65I+D106I gave nd (0 of 3 replicates). The variant G26H+R56D+K65I gave nd (0 of 3 replicates). With G26W+K65T+S107K the result was nd (0 of 3 replicates). For R57T+G61S+K65P, the assay gave 1.3 µM (1 of 3 replicates).

The variant T58C+K65M+T104C gave 120 µM (1 of 3 replicates). With T28Q+K65T+T104L the result was 220 nM (2 of 3 replicates). With R57N+K65Q+G103C the result was 49 µM (1 of 3 replicates). The variant I34M+G55P+K65G showed 920 nM (2 of 3 replicates). The variant D54E+G61E+K65G showed nd (0 of 3 replicates). With G33S+V50A+K65N the result was nd (0 of 3 replicates). The variant Y52M+V64I+K65T showed nd (0 of 3 replicates). With K65M+R100C+S107G the result was nd (0 of 3 replicates). With K65F+A102I+F105W the result was 14 µM (1 of 3 replicates).

For K65L, the assay gave 99 nM (3 of 3 replicates). With Y60E+K65P+A101E the result was nd (0 of 3 replicates). The variant I34S+S53Q+K65S showed nd (0 of 3 replicates). The variant D54A+K65V showed 4.9 µM (1 of 3 replicates). The variant G26T+T58R+K65Y gave 1.9 µM (3 of 3 replicates).

The opening 4 entries, copied out:

changes,Kd,detected
S31A+I34A+K65A,1.2 µM,1/3
I51E+Y60E+K65S,20 µM,2/3
V50P+K65I+G99Y,1.5 µM,1/3
I51H+K65E+G99N,nd,0/3

Values reported by Engelhart et al. 2022, doi:10.1038/s41597-022-01779-4 (FLAb copy).